The numbers were not newly measured in patent US20220160704A2, “COMPOSITIONS FOR OPIATE AND OPIOID PREVENTION AND REVERSAL, AND METHODS OF THEIR USE” (Torralva Medical Therapeutics LLC, priority 2018, published 2022), which cites them from elsewhere.

Structures are written as SMILES. Some compounds may have been tested in ways that are not shown here.

For the data set the following is noted: cited from earlier work.

`CCC(=O)N(c1ccccc1)C1CCN(CCc2ccccc2)CC1`: the pKa (usually the pH at which an ionisable group is half protonated) is 8.4.
